Laboratory results published in US10308689B2, “Dengue virus (DV) polypeptide sequences, T cell epitopes and methods and uses thereof” (LA JOLLA INSTITUTE FOR ALLERGY AND IMMUNOLOGY, priority 2010, dated 2019).

Test system: PBMC of healthy adult blood donors from Colombo, Sri Lanka
Test: Ex vivo IFNγ ELISPOT, HLA-matched PBMC of Sri Lankan blood donors
Format: cell-based, human
Details: ex vivo IFNγ ELISPOT
[1] = donors expressing HLA A*0201 (supertype A2)
[2] = donors expressing HLA B*5801 (supertype B58)
[3] = donors expressing HLA A*2402 (supertype A24)
[4] = donors expressing HLA B*3501 (supertype B7)

SMILES: CSCC[C@H](NC(=O)[C@H](CCSC)NC(=O)[C@@H](N)CC(C)C)C(=O)N[C@@H](CCSC)C(=O)N[C@@H](CC(C)C)C(=O)N1CCC[C@H]1C(=O)N[C@@H](C)C(=O)N[C@H](C(=O)N[C@@H](CC(C)C)C(=O)O)[C@@H](C)O
- T cell response [SFC] [1]: 78 SFC

SMILES: CC(C)C[C@H](NC(=O)[C@@H](NC(=O)[C@@H]1CCCN1C(=O)CNC(=O)[C@@H](NC(=O)[C@H](C)N)[C@@H](C)O)C(C)C)C(=O)N[C@H](C(=O)N[C@@H](CC(C)C)C(=O)N[C@@H](Cc1c[nH]c2ccccc12)C(=O)O)[C@@H](C)O
- T cell response [SFC] [2]: 185 SFC

SMILES: CC(C)C[C@H](NC(=O)[C@@H](NC(=O)[C@@H](NC(=O)[C@H](CC(C)C)NC(=O)[C@@H]1CCCN1C(=O)CNC(=O)[C@@H](NC(=O)[C@H](C)N)[C@@H](C)O)[C@@H](C)O)[C@@H](C)O)C(=O)N[C@@H](Cc1c[nH]c2ccccc12)C(=O)O
- T cell response [SFC] [2]: 350 SFC

SMILES: CC[C@H](C)[C@H](NC(=O)[C@H](CCC(=O)O)NC(=O)[C@@H](N)CCSC)C(=O)N[C@H](C(=O)N[C@@H](C)C(=O)N[C@@H](CCC(=O)O)C(=O)N[C@@H](Cc1c[nH]c2ccccc12)C(=O)N[C@@H](CC(C)C)C(=O)N[C@@H](Cc1c[nH]c2ccccc12)C(=O)O)[C@@H](C)O
- T cell response [SFC] (donors expressing B*5801): 27 SFC

SMILES: CC(C)C[C@H](NC(=O)[C@H](CCC(N)=O)NC(=O)[C@@H](NC(=O)[C@H](Cc1ccc(O)cc1)NC(=O)[C@@H](N)C(C)C)[C@@H](C)O)C(=O)N[C@@H](CS)C(=O)N[C@@H](CC(=O)O)C(=O)N[C@@H](Cc1c[nH]cn1)C(=O)N[C@@H](CCCNC(=N)N)C(=O)O
- T cell response [SFC] (donors expressing HLA A*3301 (supertype A3)): 28 SFC

SMILES: CC(C)C[C@H](NC(=O)[C@H](C)NC(=O)[C@H](CCC(=O)O)NC(=O)[C@H](Cc1ccccc1)NC(=O)[C@H](CCC(=O)O)NC(=O)[C@H](CC(C)C)NC(=O)[C@H](Cc1ccccc1)NC(=O)[C@@H](N)CCCNC(=N)N)C(=O)NCC(=O)N[C@@H](Cc1ccccc1)C(=O)O
- T cell response [SFC] (donors expressing A*2402): 37 SFC

SMILES: CSCC[C@H](NC(=O)[C@H](Cc1c[nH]c2ccccc12)NC(=O)[C@@H]1CCCN1C(=O)[C@@H](N)CC(N)=O)C(=O)N[C@@H](CCC(=O)O)C(=O)N[C@@H](CC(=O)O)C(=O)N[C@@H](CCCCN)C(=O)N[C@H](C(=O)N1CCC[C@H]1C(=O)N[C@H](C(=O)O)C(C)C)[C@@H](C)O
- T cell response [SFC] (donors expressing B*0702): 137 SFC

SMILES: CC[C@H](C)[C@H](NC(=O)[C@H](Cc1ccc(O)cc1)NC(=O)[C@@H](N)CCC(N)=O)C(=O)N[C@@H](Cc1ccccc1)C(=O)N[C@H](C(=O)NCC(=O)N[C@@H](CCC(N)=O)C(=O)N1CCC[C@H]1C(=O)N[C@@H](CC(C)C)C(=O)O)[C@@H](C)O
- T cell response [SFC] [3]: 78 SFC

SMILES: CC[C@H](C)[C@H](NC(=O)[C@H](C)NC(=O)[C@H](CC(C)C)NC(=O)[C@H](CC(C)C)NC(=O)[C@@H]1CCCN1C(=O)[C@@H](N)C(C)C)C(=O)NCC(=O)N[C@@H](CS)C(=O)N[C@@H](Cc1ccc(O)cc1)C(=O)O
- T cell response [SFC] [4]: 213 SFC

SMILES: CC(C)C[C@H](NC(=O)[C@H](CO)NC(=O)CNC(=O)[C@H](CS)NC(=O)[C@H](Cc1c[nH]c2ccccc12)NC(=O)[C@H](CCC(N)=O)NC(=O)[C@H](CC(=O)O)NC(=O)[C@H](CCC(=O)O)NC(=O)[C@@H](N)CCCNC(=N)N)C(=O)O
- T cell response [SFC] (donors expressing B*4001): 150 SFC

SMILES: CC[C@H](C)[C@H](NC(=O)[C@H](C)NC(=O)[C@H](CCCNC(=N)N)NC(=O)[C@H](CO)NC(=O)CNC(=O)[C@@H](N)CCCCN)C(=O)N[C@@H](Cc1c[nH]c2ccccc12)C(=O)N[C@@H](Cc1ccc(O)cc1)C(=O)N[C@@H](CCSC)C(=O)N[C@@H](Cc1c[nH]c2ccccc12)C(=O)O
- T cell response [SFC] (donors expressing B*5801): 335 SFC

SMILES: CSCC[C@H](NC(=O)[C@H](CC(C)C)NC(=O)[C@@H](NC(=O)[C@H](CCC(=O)O)NC(=O)[C@@H](N)CC(C)C)[C@@H](C)O)C(=O)N[C@@H](CC(C)C)C(=O)N[C@H](C(=O)N[C@@H](C)C(=O)N[C@@H](CC(C)C)C(=O)O)C(C)C [LETLMLVAL]
- T cell response [SFC] (donors expressing HLA B*4001 (supertype B44)): 112 SFC

SMILES: CC(C)[C@H](NC(=O)[C@H](CCC(=O)O)NC(=O)[C@H](Cc1ccc(O)cc1)NC(=O)[C@H](CO)NC(=O)CNC(=O)[C@H](Cc1c[nH]cn1)NC(=O)[C@H](Cc1ccc(O)cc1)NC(=O)[C@H](C)NC(=O)[C@@H](N)Cc1c[nH]c2ccccc12)C(=O)O
- T cell response [SFC] (donors expressing B*5101): 97 SFC

SMILES: CC(C)C[C@H](NC(=O)[C@@H](NC(=O)[C@H](Cc1c[nH]c2ccccc12)NC(=O)[C@H](C)NC(=O)[C@H](CO)NC(=O)[C@H](C)NC(=O)[C@@H]1CCCN1C(=O)[C@@H](N)Cc1c[nH]cn1)[C@@H](C)O)C(=O)N[C@@H](Cc1ccc(O)cc1)C(=O)O
- T cell response [SFC] [4]: 38 SFC

SMILES: CC[C@H](C)[C@H](NC(=O)[C@H](CC(C)C)NC(=O)[C@H](C)NC(=O)[C@H](CC(C)C)NC(=O)[C@H](CC(C)C)NC(=O)[C@@H](N)CCSC)C(=O)N[C@@H](C)C(=O)N[C@H](C(=O)N[C@@H](CC(C)C)C(=O)O)C(C)C
- T cell response [SFC] [1]: 85 SFC

SMILES: CC[C@H](C)[C@H](N)C(=O)N[C@@H](CCC(N)=O)C(=O)N1CCC[C@H]1C(=O)N[C@@H](Cc1ccccc1)C(=O)N[C@@H](CC(C)C)C(=O)N[C@@H](C)C(=O)N[C@@H](CC(C)C)C(=O)NCC(=O)N[C@@H](Cc1ccccc1)C(=O)O
- T cell response [SFC] [3]: 27 SFC

SMILES: CC[C@H](C)[C@H](NC(=O)[C@H](CCSC)NC(=O)[C@H](CC(N)=O)NC(=O)[C@@H]1CCCN1C(=O)[C@@H](N)CC(N)=O)C(=O)N[C@@H](CC(=O)O)C(=O)N[C@@H](CCCCN)C(=O)N[C@H](C(=O)N1CCC[C@H]1C(=O)N[C@H](C(=O)O)C(C)C)[C@@H](C)O
- T cell response [SFC] (donors expressing B*0702): 207 SFC

SMILES: CC[C@H](C)[C@H](NC(=O)[C@H](CCC(N)=O)NC(=O)[C@@H](N)CCCCN)C(=O)N[C@@H](C)C(=O)N[C@@H](CC(N)=O)C(=O)N[C@@H](CCC(=O)O)C(=O)N[C@@H](CC(C)C)C(=O)N[C@@H](CC(N)=O)C(=O)N[C@@H](Cc1ccc(O)cc1)C(=O)O
- T cell response [SFC] (donors expressing HLA B*1501 (supertype B62)): 22 SFC

SMILES: CC[C@H](C)[C@H](NC(=O)[C@H](CC(C)C)NC(=O)[C@H](CC(C)C)NC(=O)[C@@H](NC(=O)[C@H](CCSC)NC(=O)[C@H](CC(C)C)NC(=O)[C@@H](N)Cc1ccccc1)C(C)C)C(=O)N1CCC[C@H]1C(=O)N[C@@H](CCC(=O)O)C(=O)N1CCC[C@H]1C(=O)O
- T cell response [SFC] [1]: 98 SFC

SMILES: CSCC[C@H](NC(=O)[C@@H](NC(=O)[C@H](Cc1c[nH]cn1)NC(=O)[C@H](Cc1ccccc1)NC(=O)[C@@H](NC(=O)CNC(=O)[C@H](CCC(=O)O)NC(=O)[C@@H](N)CCSC)C(C)C)[C@@H](C)O)C(=O)N[C@@H](Cc1c[nH]c2ccccc12)C(=O)O
- T cell response [SFC] (donors expressing HLA B*4403 (supertype B44)): 68 SFC

SMILES: CSCC[C@H](NC(=O)[C@H](CCSC)NC(=O)[C@@H](N)CCSC)C(=O)N[C@@H](CC(C)C)C(=O)N1CCC[C@H]1C(=O)N[C@@H](C)C(=O)N[C@H](C(=O)N[C@@H](CC(C)C)C(=O)N[C@@H](C)C(=O)O)[C@@H](C)O
- T cell response [SFC] [1]: 62 SFC

SMILES: CC(C)[C@H](NC(=O)[C@H](CCCNC(=N)N)NC(=O)[C@H](CCC(N)=O)NC(=O)[C@H](CCC(N)=O)NC(=O)CNC(=O)[C@H](Cc1ccccc1)NC(=O)[C@@H]1CCCN1C(=O)[C@@H](N)[C@@H](C)O)C(=O)N[C@@H](Cc1ccccc1)C(=O)O
- T cell response [SFC] (donors expressing B*3501): 48 SFC

SMILES: CSCC[C@H](NC(=O)[C@H](Cc1ccc(O)cc1)NC(=O)[C@@H]1CCCN1C(=O)[C@H](CC(N)=O)NC(=O)[C@H](CC(C)C)NC(=O)[C@@H](NC(=O)[C@@H](N)CCCCN)C(C)C)C(=O)N1CCC[C@H]1C(=O)N[C@@H](CO)C(=O)N[C@H](C(=O)O)C(C)C
- T cell response [SFC] (donors expressing A*0201): 48 SFC
